Reference: US20130218474A1, “Benchmarks for Normal Cell Identification” (priority 2012, published 2013)

Tested on: FLT3 induced pAKT signal
Assay: Block of FLT3 induced pAKT signal
Type: cell-based
Conditions: 100 nM

CC(C)(C)c1cc(NC(=O)Nc2ccc(-c3cn4c(n3)sc3cc(OCCN5CCOCC5)ccc34)cc2)no1
block of the FLT3 induced pAKT signal: Administering a 100 nM concentration of AC220 can block ~80-90%
